From patent US11034679B2 (priority 2017, dated 2021)

Amino acid sequences for entries named in this document (tags omitted).
UniProt P35372, whole entry: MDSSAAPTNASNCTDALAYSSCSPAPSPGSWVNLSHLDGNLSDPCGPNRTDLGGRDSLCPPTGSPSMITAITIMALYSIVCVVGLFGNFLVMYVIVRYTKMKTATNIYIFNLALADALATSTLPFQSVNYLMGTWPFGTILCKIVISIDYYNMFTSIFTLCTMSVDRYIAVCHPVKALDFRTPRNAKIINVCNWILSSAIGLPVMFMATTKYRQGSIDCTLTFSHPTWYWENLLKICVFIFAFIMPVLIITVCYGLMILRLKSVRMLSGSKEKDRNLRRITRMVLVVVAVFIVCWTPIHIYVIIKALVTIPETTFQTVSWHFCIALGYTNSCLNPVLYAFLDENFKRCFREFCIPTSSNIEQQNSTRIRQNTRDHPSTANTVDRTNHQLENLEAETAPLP

Target: MOR (Homo sapiens, UniProt P35372)
Assay: cell-based
Parameters: host or cells: CHO-K1 OPRM1 β-arrestin-2 cells
Settings: read-out: % Efficacy (maximum efficacy based on DAMGO maximum stimulation)

**Q.** `COC(=O)[C@@H]1C=C(OC(=O)c2ccccc2)C(=O)[C@H]2[C@@]1(C)CC[C@H]1C(=O)O[C@H](c3ccoc3)C[C@]21C` [kurkinorin, reference compound] was tested. Which Emax did it give?
**A.** Its Emax is 96%.
